Measurements as given in patent US6541463B1, “Inhibitors of type 5 and type 3 17β-hydroxysteroid dehydrogenase and methods for their use” (Endorecherche, Inc., priority 1998, dated 2003).

By UniProt entry, the sequences of proteins in these tests, tags left out.
UniProt P37059, whole entry: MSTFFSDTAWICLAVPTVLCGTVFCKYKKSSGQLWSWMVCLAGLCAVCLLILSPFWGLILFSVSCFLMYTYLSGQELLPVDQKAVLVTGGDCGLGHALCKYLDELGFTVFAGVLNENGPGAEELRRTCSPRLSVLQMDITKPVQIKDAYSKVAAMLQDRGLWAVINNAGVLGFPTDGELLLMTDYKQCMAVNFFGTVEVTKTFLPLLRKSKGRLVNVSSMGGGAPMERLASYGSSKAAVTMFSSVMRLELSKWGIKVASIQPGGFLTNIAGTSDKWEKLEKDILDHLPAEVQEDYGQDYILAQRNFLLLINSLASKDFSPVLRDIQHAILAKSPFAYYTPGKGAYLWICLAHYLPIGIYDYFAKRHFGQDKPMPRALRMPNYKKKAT
UniProt P42330, whole entry: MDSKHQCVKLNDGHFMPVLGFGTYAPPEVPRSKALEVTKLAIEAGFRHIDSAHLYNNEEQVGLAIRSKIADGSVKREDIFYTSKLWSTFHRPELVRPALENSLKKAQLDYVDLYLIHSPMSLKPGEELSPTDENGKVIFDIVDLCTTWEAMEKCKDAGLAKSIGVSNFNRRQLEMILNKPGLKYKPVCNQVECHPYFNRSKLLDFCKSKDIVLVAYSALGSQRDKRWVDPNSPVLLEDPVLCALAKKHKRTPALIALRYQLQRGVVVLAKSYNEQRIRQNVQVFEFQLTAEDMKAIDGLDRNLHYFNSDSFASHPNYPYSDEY

Legend:
[1] = molecular target: human type 2 17β-hydroxysteroid dehydrogenase (Homo sapiens, UniProt P37059); test: Enzymatic assay for type 2 17β-HSD; conditions: for Inhibition Type 2 17β-HSD Activity [% Inh. at 3.10^−5 M]: Table 5 column 5; for Inhibition Type 2 17β-HSD Activity [% Inh. at 3.10^−5 M] / Inhibition Type 2 17β-HSD Activity [% Inh. at 3 · 10^−8M]: bracketed values; for Inhibition Type 2 17β-HSD Activity [% Inh.]: at 3.10^-8M; for Inhibition Type 2 17β-HSD Activity [% Inh. at 3 · 10^−8M]: Table 4′
[2] = molecular target: human type 5 17β-hydroxysteroid dehydrogenase (Homo sapiens, UniProt P42330); test: Inhibition of human type 5 17β-HSD activity in transfected 293 cells; type: cell-based
[3] = test system: Shionogi mouse mammary carcinoma cells; test: Antiandrogenic activity: inhibition of DHT-induced proliferation of Shionogi cells; type: cell-based; conditions: for pIC50: read-out: Antiandrogenic Activity Shionogi, DHT [IC50]; for Antiandrogenic Activity Shionogi, DHT / pIC50: DHT
[4] = test system: ZR-75-1 cells; test: Estrogenic activity: stimulation of proliferation of ZR-75-1 cells; type: cell-based, human
[5] = test system: Shionogi mouse mammary carcinoma cells; test: Androgenic activity: stimulation of proliferation of Shionogi cells
[6] = test system: ZR-75-1 cells; test: Antiestrogenic activity: inhibition of E2-induced proliferation of ZR-75-1 cells; parameters: ZR-75-1 Activity, E2 / ZR-75-1 Activity E2 E^−6: unit not given here
[7] = read-out: Inhibition Type V 17β-HSD IC50, Table 5 column 2
[8] = read-out: Inhibition Type V 17β-HSD IC50
[9] = Table 4′, DHT-induced proliferation, E^−6 (10^−6 M)
[10] = read-out: Inhibition Type V 17β-HSD IC50, Table 4′
[11] = read-out: Inhibition Type V 17B-HSD IC50

Structure (SMILES): CC1(C)CC[C@@]2(CCC3C4CCC5NC(=O)CC[C@]5(C)C4CC[C@@]32C)OC1=O (stereo partly drawn)
- Inhibition Type 2 17β-HSD Activity [% Inh. at 3.10^−5 M] [1]: [43] %
- pIC50 [2, 7]: 7.54

Structure (SMILES): CC(=O)O[C@]1(C(C)=O)CCC2C3C=C(C)C4=CC(=O)C[C@H](C)[C@]4(C)C3CC[C@@]21C (stereo partly drawn)
- Antiandrogenic Activity Shionogi, DHT ([3]; E^−6): −104
- Antiandrogenic Activity Shionogi, DHT ([3]; E^−7): −88
- pIC50 [3]: 7.39
- pIC50 [2, 8]: 7.76
- ZR-75-1 Activity, Basal ([4]; E^−6): 0
- ZR-75-1 Activity, Basal ([4]; E^−8): 0
- Androgenic Activity Shionogi, Basal ([5]; E^−6): −4
- Androgenic Activity Shionogi, Basal ([5]; E^−7): −19
- ZR-75-1 Activity, E2 ([6]; E2): −13
- ZR-75-1 Activity, E2 ([6]; E2, E^−8): −17

Structure (SMILES): CN1C(=O)CC[C@]2(C)C3CC[C@@]4(C)C(CC[C@@]45CCCC(=O)O5)C3CCC12 (stereo partly drawn)
- Inhibition Type 2 17β-HSD Activity [% Inh. at 3.10^−5 M] [1]: [68] %
- pIC50 [2, 7]: 7.56
- ZR-75-1 Activity Basal E^−6 ([4]; Table 5 column 11, E^−6): 0 0%
- ZR-75-1 Activity Basal E^−8 ([4]; Table 5 column 11, E^−8): 0 0%

Structure (SMILES): CCC(=O)O[C@]1(C(=O)N(C)CC(C)C)CCC2C3C=C(C)C4=CC(=O)CC[C@]4(C)C3CC[C@@]21C (stereo partly drawn)
- Antiandrogenic Activity Shionogi, DHT ([3]; E^−6): −112
- Antiandrogenic Activity Shionogi, DHT ([3]; E^−7): −53
- Inhibition Type 2 17β-HSD Activity [% Inh.] [1]: [83] %
- pIC50 [2, 8]: 8.40
- Androgenic Activity Shionogi, Basal ([5]; E^−6): −40
- Androgenic Activity Shionogi, Basal ([5]; E^−7): −38

Structure (SMILES): C[C@]12CCC3c4ccccc4CCC3C1CC[C@@]21CCCC(=O)O1 (stereo partly drawn)
- Antiandrogenic Activity Shionogi DHT E^−6 [3, 9]: −46%
- Antiandrogenic Activity Shionogi DHT E^−7 ([3]; Table 4′, DHT-induced proliferation, E^−7): +2%
- IC50 ([3]; read-out: Antiandrogenic Activity Shionogi, DHT [IC50 (nM)], Table 4′, bracketed values): 2100 nM
- Inhibition Type 2 17β-HSD Activity [% Inh. at 3 · 10^−8M] [1]: [88] %
- pIC50 [2, 10]: 7.99
- Androgenic Activity Shionogi Basal E^−7 ([5]; Table 4′, E^−7): +17%

Structure (SMILES): CCCC(=O)O[C@]1(C(=O)N(C)CCC)CCC2C3C=C(C)C4=CC(=O)CC[C@]4(C)C3CC[C@@]21C (stereo partly drawn)
- Antiandrogenic Activity Shionogi, DHT ([3]; E^−6): −119
- Antiandrogenic Activity Shionogi, DHT ([3]; E^−7): −101
- Inhibition Type 2 17β-HSD Activity [% Inh.] [1]: [75] %
- pIC50 [2, 8]: 8.22
- Androgenic Activity Shionogi, Basal ([5]; E^−6): −59
- Androgenic Activity Shionogi, Basal ([5]; E^−7): −41

Structure (SMILES): CC1(C)CC[C@@]2(CCC3C4CCc5cc(OS(=O)(=O)c6ccccc6)ccc5C4CC[C@@]32C)OC1=O (stereo partly drawn)
- Antiandrogenic Activity Shionogi DHT E^−6 [3, 9]: −67%
- Inhibition Type 2 17β-HSD Activity [% Inh. at 3 · 10^−8M] [1]: [62] %
- pIC50 [2, 10]: 7.27
- ZR-75-1 Activity E2 3E^−8 ([6]; Table 4′, E2-induced proliferation, 3E^−8): +19%

Structure (SMILES): CC(=O)[C@@]1(OC(=O)Cc2ccc(OC(=O)C(C)(C)C)cc2)CCC2C3C=C(C)C4=CC(=O)CC[C@]4(C)C3CC[C@@]21C (stereo partly drawn)
- Antiandrogenic Activity Shionogi, DHT ([3]; E^−6): −34
- Antiandrogenic Activity Shionogi, DHT ([3]; E^−7): 3
- Inhibition Type 2 17β-HSD Activity [% Inh.] [1]: [64] %
- pIC50 [2, 8]: 7.77
- Androgenic Activity Shionogi, Basal ([5]; E^−6): −6
- Androgenic Activity Shionogi, Basal ([5]; E^−7): −9

Structure (SMILES): CCC[C@]1(C)CC2C3C=CC4=CC(=O)CC[C@]4(C)C3CC[C@]2(C)C1=O (stereo partly drawn)
- Antiandrogenic Activity Shionogi DHT E^−6 ([3]; with DHT, E^−6): −85
- Antiandrogenic Activity Shionogi DHT E^−7 ([3]; with DHT, E^−7): −14
- pIC50 [2, 11]: 7.46
- ZR-75-1 Activity Basal E^−6 ([4]; E^−6): 10
- ZR-75-1 Activity Basal E^−8 ([4]; E^−8): 0
- Androgenic Activity Shionogi Basal E^−6 ([5]; E^−6): −22
- Androgenic Activity Shionogi Basal E^−7 ([5]; E^−7): 0
- ZR-75-1 Activity E2 3E^−8 ([6]; with E2, 3E^−8): −12

Structure (SMILES): CC(=O)[C@@]1(OC(=O)CCCCCF)CCC2C3C=C(C)C4=CC(=O)CC[C@]4(C)C3CC[C@@]21C (stereo partly drawn)
- Antiandrogenic Activity Shionogi, DHT ([3]; E^−6): −109
- Antiandrogenic Activity Shionogi, DHT ([3]; E^−7): −94
- pIC50 [3]: 7.73
- Inhibition Type 2 17β-HSD Activity [% Inh.] [1]: [50] %
- pIC50 [2, 8]: 8.36
- Androgenic Activity Shionogi, Basal ([5]; E^−6): −16
- Androgenic Activity Shionogi, Basal ([5]; E^−7): −14

Structure (SMILES): CC(C)C[C@]1(C)CC2C3C=CC4=CC(=O)CC[C@]4(C)C3CC[C@]2(C)C1=O (stereo partly drawn)
- IC50 ([3]; read-out: Antiandrogenic Activity Shionogi DHT [IC50 (nM)], with DHT, value in square brackets on second line): 471 nM
- Antiandrogenic Activity Shionogi DHT E^−6 ([3]; with DHT, E^−6): −85
- Antiandrogenic Activity Shionogi DHT E^−7 ([3]; with DHT, E^−7): −36
- pIC50 [2, 11]: 7.70
- Androgenic Activity Shionogi Basal E^−6 ([5]; E^−6): −13
- Androgenic Activity Shionogi Basal E^−7 ([5]; E^−7): 0

Structure (SMILES): CC(=O)[C@@]1(OC(=O)CCCCCBr)CCC2C3C=C(C)C4=CC(=O)CC[C@]4(C)C3CC[C@@]21C (stereo partly drawn)
- Antiandrogenic Activity Shionogi, DHT ([3]; E^−6): −126
- Antiandrogenic Activity Shionogi, DHT ([3]; E^−7): −78
- pIC50 [3]: 6.80
- pIC50 [2, 8]: 8.74
- ZR-75-1 Activity, Basal ([4]; E^−6): −8
- ZR-75-1 Activity, Basal ([4]; E^−8): 0
- Androgenic Activity Shionogi, Basal ([5]; E^−6): −32
- Androgenic Activity Shionogi, Basal ([5]; E^−7): −11
- ZR-75-1 Activity, E2 ([6]; E2): −53
- ZR-75-1 Activity, E2 ([6]; E2, E^−8): −35

Structure (SMILES): CC(=O)O[C@]1(C(=O)N(C)c2ccccc2)CCC2C3C=C(C)C4=CC(=O)CC[C@]4(C)C3CC[C@@]21C (stereo partly drawn)
- Antiandrogenic Activity Shionogi, DHT ([3]; E^−6): −82
- Antiandrogenic Activity Shionogi, DHT ([3]; E^−7): −16
- pIC50 [2, 8]: 7.60
- Androgenic Activity Shionogi, Basal ([5]; E^−6): 0
- Androgenic Activity Shionogi, Basal ([5]; E^−7): 0

Structure (SMILES): C[C@]12CCC(=O)NC1CCC1C2CC[C@@]2(C)C1CC[C@@]21CCCC(=O)O1 (stereo partly drawn)
- Inhibition Type 2 17β-HSD Activity [% Inh. at 3.10^−5 M] [1]: [70] %
- pIC50 [2, 7]: 7.50
- ZR-75-1 Activity Basal E^−6 ([4]; Table 5 column 11, E^−6): 0 0%
- ZR-75-1 Activity Basal E^−8 ([4]; Table 5 column 11, E^−8): 0 0%

pIC50: −log10 of the molar value. Like-named read-outs stand apart in the source and are kept apart here.
